Assays:
CDK5/p25 = CDK5/p25 (Homo sapiens, UniProt Q00535); assay: CDK5 mobility shift assay (enzymatic activity of CDK5/p25); conditions: for CDK5/CDK2 specificity: fold more active against CDK5 than CDK2; for IC50: read-out: CDK5 IC50, 0.154 nM CDK5/p25, FL peptide 29, 60 min at room temperature
CDK2/CycA2 = CDK2/CycA2 (Homo sapiens, UniProt P24941); assay: CDK2 mobility shift assay (enzymatic activity of CDK2/CycA2); conditions: read-out: CDK2 IC50; 1.25 nM CDK2/CycA2, 37 μM ATP, FL Peptide 18, 120 min at room temperature

Protein sequences, listed by entry. Tags and fused reporters are not part of them. Residues count along the entry.
UniProt Q00535, whole entry: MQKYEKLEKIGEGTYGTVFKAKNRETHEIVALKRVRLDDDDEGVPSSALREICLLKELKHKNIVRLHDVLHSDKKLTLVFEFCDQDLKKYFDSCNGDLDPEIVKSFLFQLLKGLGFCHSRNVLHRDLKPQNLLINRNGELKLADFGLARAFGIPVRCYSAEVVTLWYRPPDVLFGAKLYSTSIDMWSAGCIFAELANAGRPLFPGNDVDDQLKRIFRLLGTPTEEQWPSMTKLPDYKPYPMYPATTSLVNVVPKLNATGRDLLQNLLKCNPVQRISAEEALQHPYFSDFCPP
UniProt Q15078, 99-307 partner limits assumed: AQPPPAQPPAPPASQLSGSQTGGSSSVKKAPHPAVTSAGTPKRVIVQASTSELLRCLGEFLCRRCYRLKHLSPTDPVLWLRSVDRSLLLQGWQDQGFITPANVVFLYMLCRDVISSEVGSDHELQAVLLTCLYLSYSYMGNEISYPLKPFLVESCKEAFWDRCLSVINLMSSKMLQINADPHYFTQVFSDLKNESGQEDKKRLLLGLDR

Compound | CDK5/CDK2 specificity (CDK5/p25) | IC50 (CDK5/p25) | IC50 (CDK2/CycA2)
CN1CCC(S(=O)(=O)c2ccc3cnc(Nc4ccc(-c5ccncc5)cc4F)cc3n2)CC1 | +++ (greater than 100-fold more active against CDK5 than CDK2) | < 10 nM | 100 to 1000 nM
CN1CCC(S(=O)(=O)c2ccc3cnc(Nc4cccc(-n5cnnn5)c4)cc3n2)CC1 | ++ (greater than 10-fold and less than or equal to 100-fold more active against CDK5 than CDK2) | < 10 nM | 10 to 100 nM
